Patent publication US6777426B2, “Imidazole and imidazoline derivatives and uses thereof” (Synaptic Pharmaceutical Corporation, priority 1997, dated 2004)

The chains behind the UniProt entries cited, without tags or fusion partners.
UniProt P08913, whole entry: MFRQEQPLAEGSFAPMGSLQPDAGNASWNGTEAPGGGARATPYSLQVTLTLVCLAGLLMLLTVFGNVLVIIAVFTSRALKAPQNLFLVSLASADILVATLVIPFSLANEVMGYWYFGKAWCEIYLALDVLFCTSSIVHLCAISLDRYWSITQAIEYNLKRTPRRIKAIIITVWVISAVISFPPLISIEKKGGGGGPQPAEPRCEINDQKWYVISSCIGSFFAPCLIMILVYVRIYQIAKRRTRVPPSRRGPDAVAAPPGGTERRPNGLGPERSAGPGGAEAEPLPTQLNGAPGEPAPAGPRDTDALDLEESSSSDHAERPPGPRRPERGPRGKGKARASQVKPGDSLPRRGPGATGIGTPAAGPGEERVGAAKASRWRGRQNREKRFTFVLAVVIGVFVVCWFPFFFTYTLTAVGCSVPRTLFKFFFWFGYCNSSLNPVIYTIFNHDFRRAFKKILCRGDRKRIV

Biological target: T1, human α2a adrenergic receptor (Homo sapiens, UniProt P08913)
T1 construct: expressed in transfected cells; host or cells: LM(tk−) cells (L-α2A, ATCC CRL-11180), vector pCEXV-3
Experiment: α2 agonist activity: inhibition of forskolin-stimulated cAMP synthesis, α2a cells
Format: cell-based
Settings: cloned human α2a
Method: Binding and functional assays were performed using stably transfected cells expressing human α adrenergic receptors. Equilibrium competition binding assays were performed with membrane preparations from cultured LM(tk−) cells stably transfected with the cloned human adrenoceptor subtypes except for a21, which was expressed In Y-1 cells, using [^3H]prazosin for α1 receptors and [^3H]rauwolscine for […].
These cell lines were prepared by transfecting cloned cDNA or cloned genomic DNA or constructs containing both genomic DNA and cDNA encoding the human a adrenergic receptors as described below.
The agonist activity (expressed as pEC50) was measured as a function of the ability to inhibit the forskolin-stimulated synthesis of cyclic adenosine monophosphate (cAMP). The stably transfected cells were incubated in Ham's F10 with 5 mM theophylline, 10 mM HEPES, 17 mM pargyline, and/or appropriate concentrations of forskolin for 20 min. at 37° C. in 5% CO2. The tested compounds were then added to a final concentration of 0.001 nM to 1 mM and incubated for an additional 15 min. at 37° C. in 5% CO2. […] The assessment of cAMP formation was determined by radioimmunoassay (cAMP radioimmunoassay kit; Advanced magnetics, Cambridge, Mass.). Radioactivity was quantified using a Packard COBRA Auto Gamma counter equipped with data reduction software.

In the case of Brc1c(NC2=NCCN2)ccc2nccnc12 [UK-14, 304, reference compound], the “α2a IA (Intrinsic Activity)” value is reported as “(1.00)”.
